# Reference: article PMC3448615, “The Dual Orexin/Hypocretin Receptor Antagonist, Almorexant, in the Ventral Tegmental Area Attenuates Ethanol Self-Administration” (PLoS ONE, 2012)
# Amino acid sequences for entries named in this document (tags omitted).
# UniProt O43613, whole entry: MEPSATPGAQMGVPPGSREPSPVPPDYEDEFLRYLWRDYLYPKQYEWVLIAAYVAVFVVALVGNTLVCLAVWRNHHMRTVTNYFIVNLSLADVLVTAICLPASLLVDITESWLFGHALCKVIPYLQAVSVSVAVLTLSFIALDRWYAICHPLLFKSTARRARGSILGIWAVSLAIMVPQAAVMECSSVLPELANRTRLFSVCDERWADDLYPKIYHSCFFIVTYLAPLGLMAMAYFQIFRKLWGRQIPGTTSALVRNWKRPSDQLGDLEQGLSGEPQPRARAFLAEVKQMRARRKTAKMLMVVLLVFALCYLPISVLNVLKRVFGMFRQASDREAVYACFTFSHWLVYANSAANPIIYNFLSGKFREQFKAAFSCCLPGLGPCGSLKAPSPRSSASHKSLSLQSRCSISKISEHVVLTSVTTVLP
# Target: T1, Ox-R1 (orexin R1 receptor) (Homo sapiens, UniProt O43613)
# T1 construct: gene HCRTR1
# Assay: FLUO-3 calcium mobilization in HEK-293 cells, inhibition of […] orexin-A response
# Assay type: cell-based
compound,measurement,value
CNC(=O)[C@@H](c1ccccc1)N1CCc2cc(OC)c(OC)cc2[C@@H]1CCc1ccc(C(F)(F)F)cc1 [almorexant],IC50,191 ± 12 nM
